# Tested on: α-tubulin, β-tubulin in HeLa cells
# Experiment: Immunofluorescence assay of microtubules, HeLa
# Assay type: cell-based, human
# Conditions: 24 h, 3k 1, 2, and 4 μM, colchicine and paclitaxel 2.0 μM
# Description: Experimental groups were established, including a blank control group (0 μM), positive drug groups treated with paclitaxel (2.0 μM) and colchicine (2.0 μM), and intervention groups treated with 3k at concentrations of 1, 2, and 4 μM, all for a duration of 24 h. The cells were then fixed by adding 400 μL of 4% paraformaldehyde to each well and incubating for 30 min. 0.1% Triton was added at a volume of 400 μL per well and allowed to incubate for 10 min. Following this, goat serum (10%) was added at 400 μL per well and incubated for 40 min. Primary antibodies (α-tubulin, β-tubulin) were then incubated overnight at a temperature of 4 °C. Subsequently, secondary antibodies (α-mouse, β-rabbit) were incubated for 1.5 h. DAPI staining was performed at 400 μL per well for 5 min, followed by a wash with PBS. Cell climbing tablets were removed and inverted onto slides with sealer. Photographs were captured using a fluorescent inverted microscope.
compound,measurement,value
COc1cc2c(c(OC)c1OC)-c1ccc(OC)c(=O)cc1[C@@H](NC(C)=O)CC2 [colchicine],"microtubule immunofluorescence (α green, β red)",green and red fluorescence of the encapsulated cells weakened

# — publication PMC10707934, “Design and Synthesis of Novel α-Methylchalcone Derivatives, Anti-Cervical Cancer Activity, and Reversal of Drug Resistance in HeLa/DDP Cells” (Molecules, 2023)
